From patent US11186582B2, “Substituted [1,2,4]triazolo[1,5-a]pyrimidin-7-yl compounds as PDE2 inhibitors” (DART NEUROSCIENCE (CAYMAN) LTD., priority 2014, dated 2021) come the findings set out here.

Chains of the proteins cited; added tags and fusions are not shown. Residues count along the entry.
UniProt O00408, 2-941: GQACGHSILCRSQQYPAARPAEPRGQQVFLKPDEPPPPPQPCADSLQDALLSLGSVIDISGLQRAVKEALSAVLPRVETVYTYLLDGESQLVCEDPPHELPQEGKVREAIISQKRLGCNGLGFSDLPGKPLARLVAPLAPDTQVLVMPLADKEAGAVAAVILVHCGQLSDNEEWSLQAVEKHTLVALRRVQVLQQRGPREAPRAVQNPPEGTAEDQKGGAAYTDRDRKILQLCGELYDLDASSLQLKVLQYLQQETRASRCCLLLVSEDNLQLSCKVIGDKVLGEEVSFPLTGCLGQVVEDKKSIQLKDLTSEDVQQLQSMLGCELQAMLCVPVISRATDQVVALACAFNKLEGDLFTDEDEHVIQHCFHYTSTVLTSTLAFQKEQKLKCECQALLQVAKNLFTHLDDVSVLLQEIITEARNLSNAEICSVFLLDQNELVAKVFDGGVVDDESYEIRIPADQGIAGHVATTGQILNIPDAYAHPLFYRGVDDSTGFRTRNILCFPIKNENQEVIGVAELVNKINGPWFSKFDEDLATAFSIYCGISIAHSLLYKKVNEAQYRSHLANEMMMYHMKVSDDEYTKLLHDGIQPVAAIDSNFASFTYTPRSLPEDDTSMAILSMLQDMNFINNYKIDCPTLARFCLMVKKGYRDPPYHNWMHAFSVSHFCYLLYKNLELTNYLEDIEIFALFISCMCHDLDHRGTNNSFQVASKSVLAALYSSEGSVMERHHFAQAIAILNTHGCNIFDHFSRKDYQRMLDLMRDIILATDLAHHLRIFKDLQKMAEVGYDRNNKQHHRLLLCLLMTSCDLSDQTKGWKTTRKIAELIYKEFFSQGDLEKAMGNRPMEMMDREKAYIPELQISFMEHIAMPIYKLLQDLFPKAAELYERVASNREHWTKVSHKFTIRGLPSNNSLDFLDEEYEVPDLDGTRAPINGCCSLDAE

The first assay concerns the target FLAG-tagged PDE2A1 (amino acids 2-941) (Homo sapiens (Human), UniProt O00408). In words: IMAP TR-FRET PDE2A phosphodiesterase enzymatic assay.
Settings: not given
`Cc1cc(C2CCCN(C(=O)c3ccc(F)cc3F)C2)n2ncnc2n1` (centres unmarked) [Example 485, 1-[(2,4-Difluorophenyl)carbonyl]-3-{5-methyl-[1,2,4]triazolo[1,5-a]pyrimidin-7-yl}piperidine]: the IC50 is 1 to 10 µM. `Cc1cc(C2CCCN(C(=O)c3ccc(F)c(F)c3)C2)n2ncnc2n1` (centres unmarked) [Example 486, 1-[(3,4-Difluorophenyl)carbonyl]-3-{5-methyl-[1,2,4]triazolo[1,5-a]pyrimidin-7-yl}piperidine]: the IC50 fell in the range of 1 to 10 µM.

The molecule `Cc1cc(C2CCCN(C(=O)c3cccc(C)c3C)C2)n2ncnc2n1` (centres unmarked) [Example 487, 1-[(2,3-Dimethylphenyl)carbonyl]-3-{5-methyl-[1,2,4]triazolo[1,5-a]pyrimidin-7-yl}piperidine] came in with an IC50 of 1 to 10 µM. `Cc1cc(C2CCCN(C(=O)c3cccc(C)c3Cl)C2)n2ncnc2n1` (centres unmarked) [Example 488, 1-[(2-Chloro-3-methylphenyl)carbonyl]-3-{5-methyl-[1,2,4]triazolo[1,5-a]pyrimidin-7-yl}piperidine] registered a concentration for half-maximal inhibition (IC50) of 1 to 10 µM. On the same count and under the same terms, next, `Cc1cc(C2CCCN(C(=O)c3ccc(C(F)F)cc3)C2)n2ncnc2n1` (centres unmarked) [Example 489, 1-{[4-(Difluoromethyl)phenyl]carbonyl}-3-{5-methyl-[1,2,4]triazolo[1,5-a]pyrimidin-7-yl}piperidine]: 0.1 to 1 µM; `Cc1cc(C2CCCN(C(=O)c3ccc(C#N)cc3)C2)n2ncnc2n1` (centres unmarked) [Example 490, 4-[(3-{5-Methyl-[1,2,4]triazolo[1,5-a]pyrimidin-7-yl}piperidin-1-yl)carbonyl]benzonitrile]: 1 to 10 µM. `COc1ccc(C(=O)N2CCCC(c3cc(C)nc4ncnn34)C2)c(C)c1` (centres unmarked) [Example 491, 1-[(4-Methoxy-2-methylphenyl)carbonyl]-3-{5-methyl-[1,2,4]triazolo[1,5-a]pyrimidin-7-yl}piperidine]: the IC50 is 0.1 to 1 µM. Same read-out and setting: in the case of `Cc1ccc(F)c(C(=O)N2CCCC(c3cc(C)nc4ncnn34)C2)c1` (centres unmarked) [Example 492, 1-[(2-Fluoro-5-methylphenyl)carbonyl]-3-{5-methyl-[1,2,4]triazolo[1,5-a]pyrimidin-7-yl}piperidine] it was 0.1 to 1 µM; in that of `Cc1cc(C2CCCN(C(=O)c3c(C)cccc3C)C2)n2ncnc2n1` (centres unmarked) [Example 494, 1-[(2,6-Dimethylphenyl)carbonyl]-3-{5-methyl-[1,2,4]triazolo[1,5-a]pyrimidin-7-yl}piperidine], 1 to 10 µM.

Turning to `Cc1cc(C2CCCN(C(=O)c3c(F)cccc3Cl)C2)n2ncnc2n1` (centres unmarked) [Example 495, 1-[(2-Chloro-6-fluorophenyl)carbonyl]-3-{5-methyl-[1,2,4]triazolo[1,5-a]pyrimidin-7-yl}piperidine], the 50% inhibitory concentration (IC50) was over 10 µM. In turn, `COc1cccc(F)c1C(=O)N1CCCC(c2cc(C)nc3ncnn23)C1` (centres unmarked) [Example 496, 1-[(2-Fluoro-6-methoxyphenyl)carbonyl]-3-{5-methyl-[1,2,4]triazolo[1,5-a]pyrimidin-7-yl}piperidine] gave an IC50 of 1 to 10 µM. For the molecule `Cc1cc(C2CCCN(C(=O)c3c(C)cccc3Cl)C2)n2ncnc2n1` (centres unmarked) [Example 497, 1-[(2-Chloro-6-methylphenyl)carbonyl]-3-{5-methyl-[1,2,4]triazolo[1,5-a]pyrimidin-7-yl}piperidine], the IC50 is over 10 µM.

Consider `COc1ccc(C(=O)N2CC(c3cc(C)nc4ncnn34)CC(F)(F)C2)c(C)c1` (centres unmarked) [Example 500, 3,3-Difluoro-1-(4-methoxy-2-methylbenzoyl)-5-{5-methyl-[1,2,4]triazolo[1,5-a]pyrimidin-7-yl}piperidine], for which the IC50 was 0.1 to 1 µM. In turn, `COc1cc(C)ccc1C(=O)N1CC(c2cc(C)nc3ncnn23)CC(F)(F)C1` (centres unmarked) [Example 506, 3,3-Difluoro-1-(2-methoxy-4-methylbenzoyl)-5-{5-methyl-[1,2,4]triazolo[1,5-a]pyrimidin-7-yl}piperidine] came in with an IC50 of 0.1 to 1 µM.

In turn, `Cc1cc(C2CN(C(=O)c3ccc(C(F)F)cc3)CC(F)(F)C2)n2ncnc2n1` (centres unmarked) [Example 512, 1-[4-(Difluoromethyl)benzoyl]-3,3-difluoro-5-{5-methyl-[1,2,4]triazolo[1,5-a]pyrimidin-7-yl}piperidine] gave a half-inhibitory concentration (IC50) of 0.1 to 1 µM.

Staying with this assay, now noted: IMAP TR-FRET, 200 nM FAM-cAMP substrate, 11-point half-log dose-response.
On to `Cc1cc(C2CCCN(C(=O)c3ccc(-c4ccccc4)cc3)C2)n2ncnc2n1` (centres unmarked) [Example 493, 3-{5-Methyl-[1,2,4]triazolo[1,5-a]pyrimidin-7-yl}-1-[(4-phenylphenyl)carbonyl]piperidine], for which the “PDE2 (pIC50)” value is over 7. For the molecule `Cc1cc(C2CN(C(=O)c3cc4ccccc4n3C)CC(F)(F)C2)n2ncnc2n1` (centres unmarked) [Example 498, 2-(3,3-Difluoro-5-{5-methyl-[1,2,4]triazolo[1,5-a]pyrimidin-7-yl}piperidine-1-carbonyl)-1-methyl-1H-indole], the “PDE2 (pIC50)” value is reported as over 7. In the case of `Cc1cc(C2CN(C(=O)c3ccc4occc4c3)CC(F)(F)C2)n2ncnc2n1` (centres unmarked) [Example 499, 1-(1-Benzofuran-5-carbonyl)-3,3-difluoro-5-{5-methyl-[1,2,4]triazolo[1,5-a]pyrimidin-7-yl}piperidine], the “PDE2 (pIC50)” value is reported as over 7.

For the molecule `Cc1cc(C2CN(C(=O)c3ccc4c(c3)CCCC4)CC(F)(F)C2)n2ncnc2n1` (centres unmarked) [Example 501, 3,3-Difluoro-5-{5-methyl-[1,2,4]triazolo[1,5-a]pyrimidin-7-yl}-1-(5,6,7,8-tetrahydronaphthalene-2-carbonyl)piperidine], the “PDE2 (pIC50)” value is recorded as over 7. Regarding `Cc1cc(C2CN(C(=O)c3cn(C)c4ccccc34)CC(F)(F)C2)n2ncnc2n1` (centres unmarked) [Example 502, 3-(3,3-Difluoro-5-{5-methyl-[1,2,4]triazolo[1,5-a]pyrimidin-7-yl}piperidine-1-carbonyl)-1-methyl-1H-indole], the “PDE2 (pIC50)” value was over 7. Regarding `Cc1cc(C2CN(C(=O)c3ccc4sccc4c3)CC(F)(F)C2)n2ncnc2n1` (centres unmarked) [Example 503, 1-(1-Benzothiophene-5-carbonyl)-3,3-difluoro-5-{5-methyl-[1,2,4]triazolo[1,5-a]pyrimidin-7-yl}piperidine], the “PDE2 (pIC50)” value was over 7.

Regarding `Cc1cc(C2CN(C(=O)c3cc(F)cc(Cl)c3)CC(F)(F)C2)n2ncnc2n1` (centres unmarked) [Example 504, 1-(3-Chloro-5-fluorobenzoyl)-3,3-difluoro-5-{5-methyl-[1,2,4]triazolo[1,5-a]pyrimidin-7-yl}piperidine], the “PDE2 (pIC50)” value was over 7.

For the molecule `Cc1cc(C2CN(C(=O)c3ccc(-c4ccccc4)cc3)CC(F)(F)C2)n2ncnc2n1` (centres unmarked) [Example 505, 3,3-Difluoro-5-{5-methyl-[1,2,4]triazolo[1,5-a]pyrimidin-7-yl}-1-(4-phenylbenzoyl)piperidine], the “PDE2 (pIC50)” value is recorded as over 7.

On to `Cc1cc(C2CN(C(=O)c3ccc4nccn4c3)CC(F)(F)C2)n2ncnc2n1` (centres unmarked) [Example 507, 3,3-Difluoro-1-{imidazo[1,2-a]pyridine-6-carbonyl}-5-{5-methyl-[1,2,4]triazolo[1,5-a]pyrimidin-7-yl}piperidine], for which the “PDE2 (pIC50)” value is reported as over 7. Turning to `Cc1cc(C2CN(C(=O)c3cnc4ccccc4n3)CC(F)(F)C2)n2ncnc2n1` (centres unmarked) [Example 508, 2-(3,3-Difluoro-5-{5-methyl-[1,2,4]triazolo[1,5-a]pyrimidin-7-yl}piperidine-1-carbonyl)quinoxaline], the “PDE2 (pIC50)” value is listed as over 7. For `Cc1cc(C2CN(C(=O)c3cn4ccccc4n3)CC(F)(F)C2)n2ncnc2n1` (centres unmarked) [Example 509, 3,3-Difluoro-1-{imidazo[1,2-a]pyridine-2-carbonyl}-5-{5-methyl-[1,2,4]triazolo[1,5-a]pyrimidin-7-yl}piperidine], the “PDE2 (pIC50)” value is over 7. `Cc1cc(C2CN(C(=O)c3csc4ccccc34)CC(F)(F)C2)n2ncnc2n1` (centres unmarked) [Example 510, 1-(1-Benzonthiophene-3-carbonyl)3,3-difluoro-5-{5-methyl-[1,2,4]triazolo[1,5-a]pyrimidin-7-yl}piperidine]: the “PDE2 (pIC50)” value is over 7. Turning to `COc1ccc(C)cc1C(=O)N1CC(c2cc(C)nc3ncnn23)CC(F)(F)C1` (centres unmarked) [Example 511, 3,3-Difluoro-1-(2-methoxy-5-methylbenzoyl)-5-{5-methyl-[1,2,4]triazolo[1,5-a]pyrimidin-7-yl}piperidine], the “PDE2 (pIC50)” value is given as over 7. The same measure, in the same setting: next, `COc1ccc(C(=O)N2CC(c3cc(C)nc4ncnn34)CC(F)(F)C2)cc1OC` (centres unmarked) [Example 513, 1-(3,4-Dimethoxybenzoyl)-3,3-difluoro-5-{5-methyl-[1,2,4]triazolo[1,5-a]pyrimidin-7-yl}piperidine]: over 7; `Cc1cc(C2CN(C(=O)c3cc(Cl)ccc3F)CC(F)(F)C2)n2ncnc2n1` (centres unmarked) [Example 514, 1-(5-Chloro-2-fluorobenzoyl)-3,3-difluoro-5-{5-methyl-[1,2,4]triazolo[1,5-a]pyrimidin-7-yl}piperidine]: over 7; `Cc1cc(C2CN(C(=O)c3ccc(F)c(C)c3)CC(F)(F)C2)n2ncnc2n1` (centres unmarked) [Example 515, 3,3-Difluoro-1-(4-fluoro-3-methylbenzoyl)-5-{5-methyl-[1,2,4]triazolo[1,5-a]pyrimidin-7-yl}piperidine]: over 7. With `COc1cccc(C(=O)N2CC(c3cc(C)nc4ncnn34)CC(F)(F)C2)c1` (centres unmarked) [Example 517, 3,3-Difluoro-1-(3-methoxybenzoyl)-5-{5-methyl-[1,2,4]triazolo[1,5-a]pyrimidin-7-yl}piperidine], the “PDE2 (pIC50)” value was over 7.

On to `Cc1cc(C2CN(C(=O)c3ccc4c(c3)OCO4)CC(F)(F)C2)n2ncnc2n1` (centres unmarked) [Example 518, 1-(2H-1,3-Benzodioxole-5-carbonyl)-3,3-difluoro-5-{5-methyl-[1,2,4]triazolo[1,5-a]pyrimidin-7-yl}piperidine], for which the “PDE2 (pIC50)” value is over 7. As to `Cc1cc(C2CN(C(=O)c3ccc4c(c3)OCCO4)CC(F)(F)C2)n2ncnc2n1` (centres unmarked) [Example 519, 1-(2,3-Dihydro-1,4-benzodioxine-6-carbonyl)-3,3-difluoro-5-{5-methyl-[1,2,4]triazolo[1,5-a]pyrimidin-7-yl}piperidine], the “PDE2 (pIC50)” value was over 7. As for `COc1cc2ccccc2cc1C(=O)N1CC(c2cc(C)nc3ncnn23)CC(F)(F)C1` (centres unmarked) [Example 520, 3,3-Difluoro-1-(3-methoxynaphthalene-2-carbonyl)-5-{5-methyl-[1,2,4]triazolo[1,5-a]pyrimidin-7-yl}piperidine], the “PDE2 (pIC50)” value is recorded as over 7.
